# Paper PMC5658359, “A potent small-molecule inhibitor of the DCN1-UBC12 interaction that selectively blocks cullin 3 neddylation” (Nature Communications, 2017)
# Sequences of proteins named here, by UniProt entry; tags and fusion partners are left off. Residues count along the entry.
# UniProt Q96GG9, 58-259: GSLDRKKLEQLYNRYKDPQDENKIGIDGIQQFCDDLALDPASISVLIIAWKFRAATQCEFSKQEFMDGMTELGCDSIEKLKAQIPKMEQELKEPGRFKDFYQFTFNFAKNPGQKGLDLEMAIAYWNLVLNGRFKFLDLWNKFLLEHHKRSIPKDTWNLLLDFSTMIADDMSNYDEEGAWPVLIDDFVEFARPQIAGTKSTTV
# Biological target: DCN1 (Homo sapiens, UniProt Q96GG9)
# Assay: Competitive fluorescence polarization (FP) binding assay with probe 46, DCN1
# Set-up: Human DCN1 (residues 58–259) were cloned into a pDEST17 plasmid containing an N-terminal His6 tag; made in house; host or cells: Rosetta2 cells (E. coli)
# Conditions: probe 46 5 nM, DCN1 50 nM
# Procedure: The FP competitive binding experiments were performed to determine the binding affinities of all synthesized DCN1 inhibitors. […] Serial dilutions of DCN1 or DCN2 protein were mixed with the probe (46) to a final volume of 200 μl in the assay buffer (100 mM phosphate buffer, pH = 6.5, with 0.02% Tween-20 and 2% DMSO). The final probe concentration was 5 nM in both DCN1 and DCN2 assays. Plates were incubated at room temperature for 30 min with gentle shaking for equilibrium.
# The IC50 and Ki values of compounds were determined in competitive binding experiments. Mixtures of compounds in DMSO (4 μl) and of pre-incubated protein/probe complex solution (196 μl) in the assay buffer were added into assay plates that were incubated at room temperature for 30 min with gentle shaking. Final concentrations of DCN1 protein and fluorescent probe (46) were 50 and 5 nM, respectively. […] FP values were measured as described above. IC50 values were determined by nonlinear regression fitting of the competition curves using the dose response inhibition equation (four parameters, variable slopes) included in the Prism/GraphPad software. K i values were calculated using the methods described earlier.
structure (smiles),measurement,value
CCC(=O)NC(Cc1nc2ccc(C(C)C)cc2s1)C(=O)NC(CNC(=O)C1CCN(CCOCCOCCOCCNC(=O)CCCCC2SCC3NC(=O)NC32)CC1)C1CCCCC1 (stereo not shown) [compound 47],Ki,4 nM
